Measurements: publication PMC5421785, “Citrullination only infrequently impacts peptide binding to HLA class II MHC” (PLoS ONE, 2017)

The chains behind the UniProt entries cited, without tags or fusion partners. Residues count along the entry.
UniProt P01920, 33-261: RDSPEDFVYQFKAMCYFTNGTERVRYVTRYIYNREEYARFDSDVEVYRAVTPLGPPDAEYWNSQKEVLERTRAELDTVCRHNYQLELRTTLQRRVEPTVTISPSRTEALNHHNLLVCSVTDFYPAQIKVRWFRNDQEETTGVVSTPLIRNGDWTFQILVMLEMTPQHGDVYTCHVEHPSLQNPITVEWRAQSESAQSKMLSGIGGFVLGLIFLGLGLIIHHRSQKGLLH

Biological target: DQB1*03:01 (Homo sapiens, UniProt P01909+P01920)
Test: HLA class II peptide binding, inhibition of radiolabeled peptide binding to purified MHC

Molecule `CC(C)C[C@H](NC(=O)[C@H](CCCCN)NC(=O)[C@H](CC(C)C)NC(=O)[C@@H](NC(=O)[C@H](CC(N)=O)NC(=O)[C@H](CCC(N)=O)NC(=O)[C@H](CCCCN)NC(=O)[C@@H](NC(=O)[C@H](Cc1ccc(O)cc1)NC(=O)[C@H](CCCCN)NC(=O)[C@@H]1CCCN1)C(C)C)[C@@H](C)O)C(=O)N[C@@H](C)C(=O)N[C@H](C(=O)O)[C@@H](C)O` [HA 307–319, reference compound] has an IC50 of 19.9 µM.
